In this experiment the target is ABCC11 (Homo sapiens, UniProt Q96J66). Description: inhibition of [3H]-DHEA-S vesicle transport at […]. In kind it is cell-based. Particulars: 100 µM.

Chains of the proteins cited; added tags and fusions are not shown. Lines headed by an entry give the natural chain unless they say otherwise; changes in a name come on top.
UniProt Q96J66: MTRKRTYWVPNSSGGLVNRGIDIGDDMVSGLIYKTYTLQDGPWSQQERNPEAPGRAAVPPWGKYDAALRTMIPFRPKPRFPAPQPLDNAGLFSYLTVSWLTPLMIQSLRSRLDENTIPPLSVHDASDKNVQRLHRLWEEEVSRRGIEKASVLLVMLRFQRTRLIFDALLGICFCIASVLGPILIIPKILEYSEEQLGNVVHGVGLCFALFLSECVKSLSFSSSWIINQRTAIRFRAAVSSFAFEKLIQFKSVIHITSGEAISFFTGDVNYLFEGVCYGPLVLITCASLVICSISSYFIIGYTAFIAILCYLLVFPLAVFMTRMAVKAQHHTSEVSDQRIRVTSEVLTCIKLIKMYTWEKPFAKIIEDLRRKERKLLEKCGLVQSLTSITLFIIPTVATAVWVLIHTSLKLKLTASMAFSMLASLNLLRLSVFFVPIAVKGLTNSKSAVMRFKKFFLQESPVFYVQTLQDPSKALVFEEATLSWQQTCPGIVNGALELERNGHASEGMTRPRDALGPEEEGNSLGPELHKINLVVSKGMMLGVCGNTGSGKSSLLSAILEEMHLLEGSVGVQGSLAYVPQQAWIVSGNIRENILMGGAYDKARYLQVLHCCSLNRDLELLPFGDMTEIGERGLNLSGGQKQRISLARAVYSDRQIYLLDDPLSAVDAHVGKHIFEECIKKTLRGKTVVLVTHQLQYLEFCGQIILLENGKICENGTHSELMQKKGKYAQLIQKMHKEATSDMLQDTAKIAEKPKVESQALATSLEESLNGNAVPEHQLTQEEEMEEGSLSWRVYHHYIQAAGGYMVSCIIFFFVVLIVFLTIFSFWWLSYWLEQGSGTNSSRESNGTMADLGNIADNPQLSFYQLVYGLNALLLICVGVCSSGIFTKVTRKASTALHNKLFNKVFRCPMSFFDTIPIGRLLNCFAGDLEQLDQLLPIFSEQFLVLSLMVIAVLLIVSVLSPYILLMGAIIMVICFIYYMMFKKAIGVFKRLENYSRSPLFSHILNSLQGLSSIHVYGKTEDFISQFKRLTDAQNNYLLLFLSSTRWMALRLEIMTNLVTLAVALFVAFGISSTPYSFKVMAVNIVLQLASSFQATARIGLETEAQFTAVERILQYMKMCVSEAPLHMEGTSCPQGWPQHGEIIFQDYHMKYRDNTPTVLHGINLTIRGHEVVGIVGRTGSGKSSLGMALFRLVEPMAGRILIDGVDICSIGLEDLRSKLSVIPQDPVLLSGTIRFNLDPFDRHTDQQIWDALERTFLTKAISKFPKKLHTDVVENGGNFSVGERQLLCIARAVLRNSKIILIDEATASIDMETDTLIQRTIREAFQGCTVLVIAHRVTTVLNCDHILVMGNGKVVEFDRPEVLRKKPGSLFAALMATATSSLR

ABCC11-Mediated DHEA-S Transport (% of Control) data for two molecules are collected here from paper PMC7468911 (Nutrients, 2020).

Each structure is given as a SMILES string.

In turn, `O=C(/C=C/c1ccc(O)cc1)c1ccc(O)cc1O` came in with an ABCC11-Mediated DHEA-S Transport (% of Control) of 0%. For `O=c1c(O)c(-c2cc(O)c(O)c(O)c2)oc2cc(O)cc(O)c12`, the ABCC11-Mediated DHEA-S Transport (% of Control) was determined as 0%.
